Laboratory results published in US6828473B2, “Modulation of PDE11A activity” (Pfizer Inc., priority 2000, dated 2004).

Protein sequences, listed by entry. Tags and fused reporters are not part of them. Residues count along the entry.
UniProt Q9HCR9, 445-933: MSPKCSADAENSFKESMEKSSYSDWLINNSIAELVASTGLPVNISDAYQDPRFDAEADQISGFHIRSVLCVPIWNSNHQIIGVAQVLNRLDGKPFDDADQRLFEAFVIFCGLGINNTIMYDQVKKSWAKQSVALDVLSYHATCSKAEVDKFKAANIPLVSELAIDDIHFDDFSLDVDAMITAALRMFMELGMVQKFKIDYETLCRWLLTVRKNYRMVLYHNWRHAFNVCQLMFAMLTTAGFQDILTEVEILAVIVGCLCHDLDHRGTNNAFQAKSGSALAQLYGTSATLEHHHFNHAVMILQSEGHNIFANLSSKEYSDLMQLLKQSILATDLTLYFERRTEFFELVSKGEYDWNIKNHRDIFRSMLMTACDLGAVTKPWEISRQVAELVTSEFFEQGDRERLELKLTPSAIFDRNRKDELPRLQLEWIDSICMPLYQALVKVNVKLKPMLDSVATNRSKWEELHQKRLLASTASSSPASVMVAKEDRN

Molecular target: T1, recombinant human PDE11A (Homo sapiens, UniProt Q9HCR9)
T1 construct: made in house; host or cells: Sf9 insect cells (baculovirus)
Assay: PDE inhibition SPA assay, PDE11A
Type: biochemical
Conditions: comparison of IC50 values

Cl.O=C(O)C1CCN(c2nc(NCc3ccc4c(c3)OCO4)c3cc(Cl)ccc3n2)CC1 [UK-227,786 (E4021), 1-[4-[(1,3-benzodioxol-5-ylmethyl)amino]-6-chloro-2-quinazolinyl]-4-piperidinecarboxylic acid, monohydrochloride]
selectivity for inhibiting PDE11A when compared to PDEs 7-10: demonstrated selectivity
